Molecular target: T1, mu opiate receptor (MOR) (Rattus norvegicus, UniProt P33535)
T1 construct: from tissue; host or cells: striatum (membrane preparation)
Type: biochemical

Sequences of proteins named here, by UniProt entry; tags and fusion partners are left off.
UniProt P33535, whole entry: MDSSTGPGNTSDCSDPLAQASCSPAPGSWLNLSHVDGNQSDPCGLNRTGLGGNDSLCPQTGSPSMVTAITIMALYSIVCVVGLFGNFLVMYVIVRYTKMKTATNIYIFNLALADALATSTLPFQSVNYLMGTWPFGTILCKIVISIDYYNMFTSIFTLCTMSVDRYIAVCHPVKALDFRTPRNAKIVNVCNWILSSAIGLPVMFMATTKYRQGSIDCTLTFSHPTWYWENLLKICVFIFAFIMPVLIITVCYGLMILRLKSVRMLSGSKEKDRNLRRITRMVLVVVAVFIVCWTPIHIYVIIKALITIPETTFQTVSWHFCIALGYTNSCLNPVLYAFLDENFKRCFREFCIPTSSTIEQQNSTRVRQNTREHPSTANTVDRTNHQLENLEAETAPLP

Q: O=S(=O)(c1ccc(F)cc1)N1CCOC12CCN(CC1CC1)CC2 [F-C0134] was tested. Which “% DAMGO (0.1 μM)” value did it give?
A: 138.1%

Q: And the “% DAMGO (1 μM)” value?
A: 111.4%

Q: What about the “% DAMGO + BFNA” value of the same compound?
A: 116.2%

Q: What about the “[35S]GTPγS binding, FLNA-Binding Compound as Agonist at 0.1 μM” value of the same compound?
A: 290.6%

Q: And the “[35S]GTPγS binding, FLNA-Binding Compound as Agonist at 1 μM” value?
A: 378.9%

Q: What about the “[35S]GTPγS binding, FLNA-Binding Compound as Agonist at 1 μM + BFNA” value of the same compound?
A: 66.6%

Reference: patent US10760052B2, “Method of inhibiting tau phosphorylation” (priority 2012, dated 2020)
